These results are taken from patent publication US6706880B2 (Research Triangle Institute, priority 1990, dated 2004).

Amino acid sequences for entries named in this document (tags omitted).
UniProt P31652, whole entry: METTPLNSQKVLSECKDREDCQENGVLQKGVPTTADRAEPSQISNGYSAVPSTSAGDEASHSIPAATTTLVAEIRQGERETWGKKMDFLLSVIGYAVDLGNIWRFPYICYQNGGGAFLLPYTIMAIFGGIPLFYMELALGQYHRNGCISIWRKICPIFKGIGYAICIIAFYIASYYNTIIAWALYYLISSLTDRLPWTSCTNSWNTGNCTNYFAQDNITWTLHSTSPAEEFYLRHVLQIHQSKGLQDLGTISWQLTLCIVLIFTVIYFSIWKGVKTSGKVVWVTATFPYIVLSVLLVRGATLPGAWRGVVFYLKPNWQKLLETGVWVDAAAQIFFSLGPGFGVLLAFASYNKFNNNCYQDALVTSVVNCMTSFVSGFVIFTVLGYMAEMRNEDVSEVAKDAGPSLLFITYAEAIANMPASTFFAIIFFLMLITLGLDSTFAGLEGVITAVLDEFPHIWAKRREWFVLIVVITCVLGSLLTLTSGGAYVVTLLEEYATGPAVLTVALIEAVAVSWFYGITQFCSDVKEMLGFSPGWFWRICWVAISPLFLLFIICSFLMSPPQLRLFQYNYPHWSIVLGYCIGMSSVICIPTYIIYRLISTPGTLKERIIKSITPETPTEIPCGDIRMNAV

The structures appear in SMILES notation.

For orientation: IC50 means the point on the concentration scale where inhibition reaches its midpoint.

The target of assay [1] is dopamine transporter (UniProt P23977). Particulars: read-out: DA IC50 for inhibition of radioligand binding; DA=[3H]WIN 35,428. An excerpt:
(§1) Illustrative in vitro assays for binding are described in Boja et al Ann. NY Acad. Sci. 654:282-291 (1992), which is incorporated herein by reference in its entirety. […] Alternatively, the compounds may be analyzed by their ability to inhibit reuptake of a labelled neurotransmitter in a sample, in particular, in synaptosomes.

In assay [2] the target is T1, serotonin transporter (Rattus norvegicus, UniProt P31652).
T1 construct: from tissue
Nature of the assay: Inhibition of [3H]paroxetine radioligand binding at the serotonin transporter. Particulars: 5-HT IC50 for inhibition of radioligand binding, 5-HT=[3H] paroxetine.
Source text: as §1

Take `COC(=O)C1C(c2ccc(Cl)cc2)CC2CCC1N2C` (stereo not drawn) [RTI-4229-31]: the 50% inhibitory concentration (IC50) in assay [1] stood at 1.12 nM. `Cc1noc(C2C(c3ccc(Cl)cc3)CC3CCC2N3C)n1` (stereo not drawn) [RTI-4229-125]: in assay [1], the half-inhibitory concentration (IC50) is 4.05 nM. In assay [2], `COC(=O)C1C2CCC(C[C@H]1c1ccccc1)N2C` (stereo partly drawn) [RTI-4229-140] showed a half-inhibitory concentration (IC50) of 5700 nM.
